Measurements reported in US20190335746A1, “ANT[…] […] AGENTS AND SYSTEMS AND METHODS FOR USING THE SAME” (priority 2016, published 2019).

Conditions: spiked tomato slice extracts and juice sample

chlorite
recoveries: 0-69%
